# Bioassay records from PubChem BioAssay.
# Hits are enriched below; roughly 0.62% of the tested compounds scored in any of these assays.
# Rango release inh = prevents RanGTP from dissociating the Rango-importin beta complex | O95149+P62826 | Biochemical FRET Rango-importin beta, RanGTP-induced dissociation | Potency, µM (doses to about 46.1 µM), for the others: at the highest dose activity change, negative = inhibition | 0.071% of 340,000 active; further: potency means the concentration at half of the fitted maximal effect; % of control where 0% means no effect; nearly all actives have a fitted effect of over 45% in size
#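 Rango FRET biosensor (snurportin-1 IBB flanked by N-terminal EYFP and C-terminal CFP10) at 0.1 uM, with 0.25 uM importin beta in PBS, 1mM DTT, 0.02% Tween-20, 0.1% BSA. 0.6 uM Ran, 2mM GTP and 0.2 uM RCC1 were then added for 45 min at room temperature. Inhibition read as loss of FRET rise.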
# Rango complex inh = inhibitors of Rango-importin beta complex formation. Q14974. Rango CFP/YFP FRET sensor + importin beta, 45 min. Potency, µM (titrated, usually from 92.2 µM), without a hit: top-dose inhibition of complex formation. 0.031% of 340,000 active;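 further: potency means the concentration at half of the fitted maximal effect; 0% = DMSO wells and 100% = buffer wells lacking importin beta; nearly all actives have a fitted effect of over 15% in size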
#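 Inhibition scored from the CFP 486 nm/YFP 530 nm FRET ratio 45 min after adding 0.125 microM importin beta to 50 nM Rango biosensor preincubated 5 min with compound (room temperature, PBS with DTT, Tween-20, BSA). No-importin wells as positive control.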
# p53 reactivator = re-activators of mutant p53; H1299 p53-A138V BP100-luciferase reporter, luminescence, 24 h; Potency, µM (series often up to 92.2 µM), for the others: at the top dose activity change, positive = activation, actives largely listed as activators; 0.063% of 320,000 active; AID 504706; active means well fitted activation curve with a large enough effect; inconclusive means small, poorly fitted or top-dose-only effect; inactive means no such curve, though single readings can be large or run the other way; further: potency means the concentration at half of the fitted maximal effect; % of control where 0% means no effect; nearly all actives have a fitted effect of over 45% in size
#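 H1299 (p53-null), stable ts p53-A138V + BP100-Luc; 1000 cells/well, Opti-MEM/10% FBS; cpd 4 pt, 1:5; 24 h, 37 deg C, 5% CO2; detection reagent 10 min RT; luminescence.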
# TSHR antag = blocks TSH signaling through the human TSH receptor. P16473. AID 504810. 0.2% of 330,000 active. activity change, negative = inhibition, % at 11.5 µM. TSHR-expressing cells, TSH-stimulated cAMP HTRF, 2 h; hits give low values;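 active means activity change below a set negative limit, meaning inhibition stronger than a set level, cut at about -70% in these data; inconclusive means activity change between two set negative limits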; further: on the % scale 0 is the no-effect control and ±100 the full control effect
#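 TSHR-expressing cells were treated with compounds, then stimulated with TSH at EC80 (4nM final) for 2 hours at 37 deg C. Cellular cAMP was measured by HTRF competition between lysate cAMP and cAMP-d2 for a cryptate-labelled anti-cAMP antibody.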
# Akt phos inh = blocks phosphorylation of Akt; activity change, % for hits at 50 µM; AID 651550; 0.32% of 360,000 active; Neuro2A IGF-stimulated pAkt S473 HTRF, 20 min; hits give low values; in the data active means activity change below about -80%; inconclusive means mostly about -51% to -80%; further: on the % scale 0 is the no-effect control and ±100 the full control effect
#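 Neuro2A cells (4,500/well, DMEM with 0.5% FBS) were treated with compound at a single 50 µM final concentration, stimulated with 6 nM IGF for 20 min at 37 °C, and lysed. Phospho-Akt Ser473 was read by HTRF as 665/615 ratio ×10^4.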
# An asterisk follows results filed as active; i = inactive; ? = inconclusive; / = no result. Unless noted, the call rests on the fitted dose curve.
# Short forms: A = Rango release inh; B = Rango complex inh; C = p53 reactivator; D = TSHR antag; E = Akt phos inh
CC(C)CN(C(=O)COC(=O)c1ccc2c(c1)NC(=O)CS2)C1CCS(=O)(=O)C1 (configuration not stated)
  A = 9%; B = 0%; C = -1%; D = -9; E = i

COc1cc(CNc2ncnc3c2ncn3[C@H]2CN(Cc3cccc4ccccc34)C[C@@H](CO)O2)cc(OC)c1OC
  A = /; B = /; C = /; D = /; E = i

CC(C)(C)c1ccc(-n2nc(C#N)c(Cl)cc2=O)cc1
  A = ?; B = 4%; C = -11%; D = -80*; E = i

CC(C)(C)c1ccc(-n2nc(C(N)=O)c(O)cc2=O)cc1
  A = -13%; B = 3%; C = -4%; D = -1; E = i

CC(C)NC(=O)N[C@H]1CC[C@H](CC(=O)NCc2ccc(Oc3ccccc3)cc2)O[C@@H]1CO
  A = /; B = /; C = /; D = /; E = i

CC(C)(CNS(=O)(=O)c1ccc(Br)s1)N1CCOCC1
  A = 1%; B = -3%; C = -4%; D = /; E = i

N#C/C(=C\c1ccc(Cl)cc1Cl)c1n[nH]c(Cn2cncn2)n1
  A = 8%; B = -1%; C = -8%; D = -6; E = -90%*

O=C(Nc1ccccc1)c1n[nH]c(Cn2cncn2)n1
  A = 12%; B = -7%; C = 2%; D = 1; E = i

CCN(CC)S(=O)(=O)c1cccc(C(=O)OCC(=O)c2ccc3c(c2)OCCO3)c1
  A = -16%; B = -1%; C = 9%; D = -15; E = i

c1cncc(-c2nnc3n2N=C(c2cccs2)CS3)c1
  A = -5%; B = 1%; C = -28%; D = -3; E = -114%*

COc1ccc(C(=O)COc2ccccc2N2C(=O)C3C4C=CC(C4)C3C2=O)cc1 (configuration not stated)
  A = -2%; B = -1%; C = ?; D = -7; E = -139%*

COc1cccc(C(=O)COc2ccccc2N2C(=O)C3C4C=CC(C4)C3C2=O)c1 (configuration not stated)
  A = 15%; B = -1%; C = 7%; D = -20; E = i

COc1ccc(C(=O)COc2ccccc2C#N)cc1
  A = 1%; B = 3%; C = 32µM*; D = 5; E = i

COC(=O)C(C(=O)OC)=C(/C=C/C=C/N(C)C)N(C)C
  A = 9.2µM*; B = ?; C = 0%; D = 12; E = /

COC(=O)C(C(=O)OC)=C(/C=C/N(C)C)N(C)C
  A = -3%; B = 0%; C = -4%; D = -6; E = -104%*

Cc1ccc(C)n1-c1ccc(-c2ccnc(N)n2)cc1
  A = 15µM*; B = ?; C = 22%; D = 0; E = i

Cc1cc2ncn(/N=C/c3ccc([N+](=O)[O-])o3)c2cc1C
  A = 0%; B = 58µM*; C = -7%; D = -10; E = i

O=[N+]([O-])c1ccc(/C=N/N=C/c2ccc([N+](=O)[O-])o2)o1
  A = -12%; B = -4%; C = -18%; D = 9; E = i

Cc1ccc(C(=O)CSc2nc3cccnc3n2C)cc1
  A = -4%; B = 0%; C = -1%; D = -9; E = -106%*

CC(C)c1nc2sc3c(SCC(=O)NCc4ccco4)ncnc3c2c2c1CCC2
  A = -15%; B = -3%; C = -1%; D = 17; E = -95%*

O=C(CSc1ncnc2sc3c(c12)CCCCC3)NCc1ccco1
  A = 1%; B = -4%; C = 26%; D = -22; E = i

CCCC(=O)OCCNc1cc(Sc2nccn2C)c2nonc2c1[N+](=O)[O-]
  A = -7%; B = ?; C = -22%; D = -93*; E = i

Cc1nnc(Sc2cc(NCCCO)c([N+](=O)[O-])c3nonc23)s1
  A = 0%; B = -4%; C = -8%; D = -86*; E = i

O=[N+]([O-])c1c(NCCCO)cc(Sc2nc3ccccc3s2)c2nonc12
  A = 5%; B = 3%; C = -10%; D = -94*; E = i

Cc1nnc(Sc2cc(NCCO)c([N+](=O)[O-])c3nonc23)s1
  A = -26%; B = -2%; C = -12%; D = -50; E = i

O=S(=O)(/C=C/c1ccccc1)n1cnc2ccccc21
  A = 8%; B = 3%; C = -2%; D = 2; E = -118%*

COc1ccc(CCNC(=O)c2cnc(C)cn2)cc1
  A = -6%; B = 4%; C = 1%; D = 53; E = i

COc1ccc(CCNC(=O)COC(=O)c2cnc(C)cn2)cc1
  A = 15%; B = 0%; C = 7%; D = 6; E = -109%*

Cc1ccc(O)c(C2=Nc3ccccc3N=C(c3ccco3)C2)c1
  A = 6%; B = ?; C = -2%; D = 14; E = ?

Cc1ccc(C2=Nc3ccccc3N=C(c3ccco3)C2)c(O)c1
  A = -3%; B = 2%; C = 3%; D = -8; E = -125%*

# Look-ups from the results shown.
# In Rango complex inh, `COc1ccc(C(=O)COc2ccccc2C#N)cc1` has 3%
# In p53 reactivator, `O=[N+]([O-])c1ccc(/C=N/N=C/c2ccc([N+](=O)[O-])o2)o1` has -18%

# (more compounds)
# Short forms: A = Rango release inh; B = Rango complex inh; C = p53 reactivator; D = TSHR antag; E = Akt phos inh
CCOC(=O)c1cnn(-c2cc(C)c3ccccc3n2)c1N
  A = -7%; B = -3%; C = 3%; D = -27; E = -133%*

CCc1cc(=O)oc2c(C)c(O)c(CN3CCCCC3)cc12
  A = ?; B = ?; C = -3%; D = -1; E = -93%*

COc1ccc(-n2nc(C(=O)NCC(=O)Nc3cc(OC)c(OC)c(OC)c3)c3ccccc3c2=O)cc1
  A = -16%; B = 0%; C = -6%; D = -1; E = i

COc1ccc(-n2nc(C(=O)NCC(=O)Nc3cc(OC)c(OC)c(OC)c3)c3ccccc3c2=O)cc1OC
  A = -21%; B = ?; C = -5%; D = -117*; E = i

C=CCn1cc(/C=N/Nc2nc3ccccc3[nH]2)c2ccccc21
  A = 8%; B = -2%; C = 32µM*; D = 2; E = i

C(=N\Nc1nc2ccccc2[nH]1)/c1ccncc1
  A = ?; B = -4%; C = 25%; D = -88*; E = i

C/C(=N\Nc1nc2ccccc2[nH]1)c1ccccn1
  A = /; B = /; C = 8.9µM*; D = -8; E = /

O=[N+]([O-])c1ccc(O)c(/C=N/Nc2nc3ccccc3[nH]2)c1
  A = -9%; B = 6%; C = 25µM*; D = -20; E = i

COc1cccc(C(=O)OCC(=O)NCCCc2ccccc2)c1
  A = 2%; B = 0%; C = 8%; D = -3; E = i

COc1ccc(C(O)c2ncc(-c3ccccc3OC)[nH]2)cc1F (configuration not stated)
  A = /; B = /; C = /; D = /; E = i

O=C(NC(C(=O)N/N=C/c1cc([N+](=O)[O-])ccc1O)c1n[nH]c(=O)c2ccccc12)c1ccccc1 (configuration not stated)
  A = 16µM*; B = ?; C = 3%; D = -24; E = i

Nn1c(SCC(=O)Nc2ccc(S(=O)(=O)N3CCCC3)cc2)nnc1C(F)(F)F
  A = 1%; B = -1%; C = 0%; D = 4; E = -107%*

CN1Cc2c(N3CCOCC3)nc(SCc3ccccc3)c(C#N)c2CC1(C)C
  A = 8.2µM*; B = ?; C = ?; D = -4; E = i

CCSc1nc(N2CCOCC2)c2c(c1C#N)CC(C)(C)N(C)C2
  A = ?; B = ?; C = 1%; D = 0; E = i

C#CCNC(=O)C1=C[C@@H](c2ccc(C(F)(F)F)cc2)[C@H](CCCO)[C@@H](OCC)O1
  A = -14%; B = -1%; C = -1%; D = -7; E = i

OCCCc1nc2ccccc2n1CCOc1ccccc1
  A = -8%; B = -2%; C = 4%; D = -4; E = i

Cc1ccc(OCCn2c(CCCO)nc3ccccc32)cc1
  A = 12%; B = -1%; C = /; D = /; E = -106%*

Cc1ccc(-c2nc3ccc(Cl)cn3c2Cc2cccc(Cl)c2)cc1
  A = /; B = /; C = /; D = /; E = i

Cc1ccc(C(=O)Nc2cccc(O)c2)cc1S(=O)(=O)N1CCCCCC1
  A = -8%; B = 1%; C = 25%; D = -2; E = i

CNC(=O)c1ccccc1NC(=O)c1ccc(C)c(S(=O)(=O)N2CCCCC2)c1
  A = -11%; B = -1%; C = -12%; D = /; E = -112%*

# Shown with two lines to a compound: entries from further up
# Sequence of screens – Rango release inh, Rango complex inh, p53 reactivator, TSHR antag, Akt phos inh
O=C(NC(C(=O)N/N=C/c1cc([N+](=O)[O-])ccc1O)c1n[nH]c(=O)c2ccccc12)c1ccccc1 (configuration not stated)
→ 16µM*, ?, 3%, -24, i
CCSc1nc(N2CCOCC2)c2c(c1C#N)CC(C)(C)N(C)C2
→ ?, ?, 1%, 0, i
